Measured affinities in a library of Ab-14 heavy chain variants

The measurements come from Li et al. 2023 (doi:10.1038/s41467-023-39022-2) through the FLAb antibody collection.

Target peptide (SARS-CoV-2 spike, HR2 region): PDVDLGDISGINAS

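Phage display of a naive human antibody library on the peptide gave the parent. The variants were designed computationally from a first round of random CDR variants and then made and measured. Group labels follow the data file (Ctrl: baseline library sampled from a position-specific scoring matrix, with some repeated check sequences; En: ensemble of fine-tuned language models; GP: Gaussian process model; GPLM: also part of the Gaussian process libraries; HC: hill climbing; Gen: genetic algorithm; Gibbs: Gibbs sampling; a sequence that several methods proposed may carry one label only). The scFvs were displayed on barcoded MATa yeast, the peptide on MATalpha yeast. Binding brings cells together so that they mate, and sequencing counts the barcode pairs among the diploids. The ratio of observed to expected reads was calibrated, replicate by replicate, on BCL2-family standards whose Kd was known from biolayer interferometry. Mating was done six times.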

Ab-14 is the parent antibody, in scFv form: VH, then the linker GGGGSGGGGSGGGGS, then VL. The light chain is unchanged in all variants.
VH: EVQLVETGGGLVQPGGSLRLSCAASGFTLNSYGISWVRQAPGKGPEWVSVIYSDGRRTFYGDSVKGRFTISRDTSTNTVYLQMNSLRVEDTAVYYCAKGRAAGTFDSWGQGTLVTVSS
VL: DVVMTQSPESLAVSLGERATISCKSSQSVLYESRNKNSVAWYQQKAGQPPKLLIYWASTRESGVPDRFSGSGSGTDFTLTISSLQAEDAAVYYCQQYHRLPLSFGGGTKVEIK

Variants are written as CDR1, CDR2 and CDR3 of the heavy chain (limits as in the source). Parent: GFTLNSYGIS, VIYSDGRRTFYGDSVK, GRAAGTFDS.
Values are apparent Kd, the geometric mean of the replicates that gave a signal; lower means stronger binding.
Where no diploid with the target was found in any replicate, the entry reads "nd": below detection, most likely a poor binder, though not proof of it.

{"CDR-H1": "GFDLNSYGIS", "CDR-H2": "VIYSDGRRTFYCDSVK", "CDR-H3": "GKAAGTFDS", "group": "GPLM_Gen", "Kd": "250 nM", "detected": "2/6"}
{"CDR-H1": "GFDLDEYGIS", "CDR-H2": "VIYADGRRTFYADSVK", "CDR-H3": "GENAGTFFS", "group": "En_HC", "Kd": "6.1 nM", "detected": "6/6"}
{"CDR-H1": "GFNLNEYGIS", "CDR-H2": "VIYADGRRTFYADSVK", "CDR-H3": "GEAAGTFDE", "group": "En_HC", "Kd": "2.6 nM", "detected": "6/6"}
{"CDR-H1": "GFDLDEYGIS", "CDR-H2": "VIYADGMRVSYDQNVK", "CDR-H3": "GHGGGSFNF", "group": "En_Gibbs", "Kd": "nd", "detected": "0/6"}
{"CDR-H1": "GFTLNDYGIS", "CDR-H2": "VIYSDGRRTFYGDSVE", "CDR-H3": "GRAAGTFDS", "group": "Ctrl", "Kd": "19 nM", "detected": "6/6"}
{"CDR-H1": "GFSLDEYGIS", "CDR-H2": "VIYADGQRVQYVDPFK", "CDR-H3": "GEQAGNVDV", "group": "En_Gibbs", "Kd": "320 nM", "detected": "1/6"}
{"CDR-H1": "GFNLNSYGIS", "CDR-H2": "VIYSDGRRTFYVDSVK", "CDR-H3": "GQTAGTFDS", "group": "GPLM_Gibbs", "Kd": "nd", "detected": "0/6"}
{"CDR-H1": "GFNLEDYGIS", "CDR-H2": "VIYADGHRASYVESVK", "CDR-H3": "GHLAGTFDE", "group": "En_Gibbs", "Kd": "710 pM", "detected": "6/6"}
{"CDR-H1": "GFDLSEYGIS", "CDR-H2": "VIYADGRRASYTDAVK", "CDR-H3": "GEVEGMLMV", "group": "En_Gibbs", "Kd": "nd", "detected": "0/6"}
{"CDR-H1": "GFTLNSYGIS", "CDR-H2": "VIYADGRRTFYGDSVK", "CDR-H3": "GRVAGTFDT", "group": "GPLM_Gen", "Kd": "1.7 nM", "detected": "6/6"}
{"CDR-H1": "GFDLDEYGIS", "CDR-H2": "VIYADGMRTAYADNVK", "CDR-H3": "GQNAGTFDV", "group": "En_Gen", "Kd": "630 pM", "detected": "6/6"}
{"CDR-H1": "GFNLDEYGVS", "CDR-H2": "VIYADGKRTVYHDSVK", "CDR-H3": "GKFLGVKLN", "group": "En_Gibbs", "Kd": "nd", "detected": "0/6"}
{"CDR-H1": "GFTLNQYGIS", "CDR-H2": "VIYSDGRRTFYADSVK", "CDR-H3": "GRHAGTFDS", "group": "GPLM_HC", "Kd": "10 nM", "detected": "6/6"}
{"CDR-H1": "GFDLNEYGIS", "CDR-H2": "VIYADGVRTAYADSVK", "CDR-H3": "GQVAGTFDQ", "group": "En_Gen", "Kd": "230 pM", "detected": "6/6"}
{"CDR-H1": "GESLEEYGIS", "CDR-H2": "VIYADGIREQYVDSVK", "CDR-H3": "GEQGGYFVV", "group": "En_Gibbs", "Kd": "45 nM", "detected": "1/6"}
{"CDR-H1": "GFDLNEYGIS", "CDR-H2": "VIYADGSRTAYADDVK", "CDR-H3": "GNVAGTFDT", "group": "En_Gen", "Kd": "900 pM", "detected": "6/6"}
{"CDR-H1": "GFELNSYGIS", "CDR-H2": "VIYSDGRRTFYGDSVK", "CDR-H3": "GSTAGTFDD", "group": "GPLM_Gibbs", "Kd": "2.7 nM", "detected": "6/6"}
{"CDR-H1": "GFDLDEYGVS", "CDR-H2": "VIYADGMRMAYQNDVK", "CDR-H3": "GQKGNVFFM", "group": "En_Gibbs", "Kd": "nd", "detected": "0/6"}
{"CDR-H1": "GFVLNQYGIS", "CDR-H2": "VIYSDGRRTFYSDSVK", "CDR-H3": "GRAAGTFDS", "group": "GPLM_HC", "Kd": "3.1 nM", "detected": "6/6"}
{"CDR-H1": "GFNLNSYGIS", "CDR-H2": "VIYSDGRRTAYQDSVK", "CDR-H3": "GRAAGTFDS", "group": "GP_HC", "Kd": "3.2 nM", "detected": "6/6"}
{"CDR-H1": "GFSLNEYGIS", "CDR-H2": "VIYSDGRRTFYIDQVK", "CDR-H3": "GRAAGTFDS", "group": "GP_Gibbs", "Kd": "1.5 nM", "detected": "6/6"}

The 2 strongest on average among those seen in every replicate, once more:

CDR-H1	CDR-H2	CDR-H3	group	Kd	detected
GFDLNEYGIS	VIYADGVRTAYADSVK	GQVAGTFDQ	En_Gen	230 pM	6/6
GFDLDEYGIS	VIYADGMRTAYADNVK	GQNAGTFDV	En_Gen	630 pM	6/6

As a blank, each scFv also met three strains without target: over all heavy chain designs, 1% of these pairings were detected, typically at 120 nM and seldom below 7.0 nM.
In the paper, a design with two or fewer of six values counts as a poor binder.
The parent sequence was in this pool as ten entries: three were never detected, three once, and four in most replicates, with averages from 2.2 nM to 240 nM.
A sequence measured in both rounds can read differently, since the two assays cover different ranges.